## scFv variants of Ab-14 (heavy chain) against a SARS-CoV-2 spike peptide

The target is the same throughout: PDVDLGDISGINAS, from the HR2 region of SARS-CoV-2 spike.

Ab-14 is the parent antibody, in scFv form: VH, then a (GGGGS)3 linker, then VL. The light chain is unchanged in all variants.
VH: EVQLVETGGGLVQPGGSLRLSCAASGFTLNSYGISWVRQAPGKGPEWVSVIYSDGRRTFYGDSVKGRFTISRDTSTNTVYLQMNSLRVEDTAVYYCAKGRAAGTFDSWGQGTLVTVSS
VL: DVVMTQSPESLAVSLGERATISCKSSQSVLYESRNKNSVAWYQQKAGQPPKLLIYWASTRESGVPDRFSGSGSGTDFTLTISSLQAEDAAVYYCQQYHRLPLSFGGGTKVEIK

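Phage display of a naive human antibody library on the peptide gave the parent. In library AAYL49, one, two or three CDR residues were substituted; doubles and triples were drawn at random. In AlphaSeq, yeast of one mating type display the scFv and yeast of the other type display the target. After mating in shaken culture at 30 °C for 16 h, diploids were selected and their barcode pairs sequenced. A regression on co-assayed BCL2-family reference pairs converts the normalised counts of each replicate to an apparent Kd. Mating was done three times.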

Each variant is given by its three heavy chain CDRs, as the data file delimits them; those of the parent are GFTLNSYGIS, VIYSDGRRTFYGDSVK, GRAAGTFDS. Affinities are written as log10 Kd with Kd in nM; a lower number is a better binder. Replicates are averaged; those with no signal do not enter the mean. "n.d." marks a missing value. The strain was present, yet no cells mated with the target were sequenced in that replicate, which points to weak or no binding. Empty control strains, which show no peptide, gave a signal in 15% of pairings with library AAYL49; the median was 4.06 and 95% of these signals were weaker than 2.83. No background was subtracted. The control count says in how many pairings with the empty strains this scFv gave a signal, with their mean in brackets.

{"CDR-H1": "GGTLNSYGIS", "CDR-H2": "VIYSKGRRTFRGDSVK", "CDR-H3": "GRAAGTFDS", "log10 Kd, replicates": "n.d. 3.94 n.d.", "mean log10 Kd (nM)": "3.94", "control signals": "2/9 (3.86)"}
{"CDR-H1": "GFTLNSYGIK", "CDR-H2": "VIYSDERRTFYGDSVK", "CDR-H3": "GRAGGTFDS", "log10 Kd, replicates": "n.d. n.d. n.d.", "mean log10 Kd (nM)": "n.d.", "control signals": "0/9"}
{"CDR-H1": "GFTLNSPGIS", "CDR-H2": "VIYSDGRRTFHQDSVK", "CDR-H3": "GRAAGTFDS", "log10 Kd, replicates": "n.d. n.d. n.d.", "mean log10 Kd (nM)": "n.d.", "control signals": "0/9"}
{"CDR-H1": "GFTLNSYAIS", "CDR-H2": "VIYSDGRPTFYGDSVK", "CDR-H3": "GRAAKTFDS", "log10 Kd, replicates": "n.d. 3.40 4.88", "mean log10 Kd (nM)": "4.14", "control signals": "3/9 (3.17)"}
{"CDR-H1": "GFTLNSYGIS", "CDR-H2": "VIYSDGRRFFYGDSVD", "CDR-H3": "GRAAGTFQS", "log10 Kd, replicates": "3.84 3.22 3.11", "mean log10 Kd (nM)": "3.39", "control signals": "1/9 (5.85)"}
{"CDR-H1": "GFTLNSYGIS", "CDR-H2": "VIYSDTRRTFYGDSVK", "CDR-H3": "GRAAKFFDS", "log10 Kd, replicates": "n.d. n.d. n.d.", "mean log10 Kd (nM)": "n.d.", "control signals": "2/9 (3.63)"}
{"CDR-H1": "GFTLNSYAIS", "CDR-H2": "VIYSDGRRTFYGISVK", "CDR-H3": "GREAGTFDS", "log10 Kd, replicates": "n.d. n.d. n.d.", "mean log10 Kd (nM)": "n.d.", "control signals": "0/9"}
{"CDR-H1": "GMTLNSYGIS", "CDR-H2": "VIYQDGRRTFYGDSVK", "CDR-H3": "GRAAGTFDS", "log10 Kd, replicates": "2.83 3.70 3.35", "mean log10 Kd (nM)": "3.30", "control signals": "5/9 (4.01)"}
{"CDR-H1": "GFTLNSYGIS", "CDR-H2": "VIYSDGRRTAYGDSVK", "CDR-H3": "GRAAGTWDW", "log10 Kd, replicates": "n.d. 2.75 n.d.", "mean log10 Kd (nM)": "2.75", "control signals": "2/9 (3.43)"}
{"CDR-H1": "GFTLNSYGIS", "CDR-H2": "VIYSDARRTFYCDSVK", "CDR-H3": "GMAAGTFDS", "log10 Kd, replicates": "n.d. n.d. n.d.", "mean log10 Kd (nM)": "n.d.", "control signals": "4/9 (4.06)"}
{"CDR-H1": "GFTLNSYGIS", "CDR-H2": "VIYSRGRRRFYGDSVK", "CDR-H3": "GRAAGTFDI", "log10 Kd, replicates": "n.d. n.d. n.d.", "mean log10 Kd (nM)": "n.d.", "control signals": "3/9 (4.22)"}
{"CDR-H1": "GFTLQSYGAS", "CDR-H2": "VIYSDGRRQFYGDSVK", "CDR-H3": "GRAAGTFDS", "log10 Kd, replicates": "n.d. 3.75 n.d.", "mean log10 Kd (nM)": "3.75", "control signals": "0/9"}
{"CDR-H1": "GFTLNSYGIG", "CDR-H2": "VIYHDGRRTFWGDSVK", "CDR-H3": "GRAAGTFDS", "log10 Kd, replicates": "5.59 n.d. n.d.", "mean log10 Kd (nM)": "5.59", "control signals": "2/9 (3.93)"}
{"CDR-H1": "GFTLNSYGIS", "CDR-H2": "VIYSDSRRTYYGDSVK", "CDR-H3": "GRAAGTEDS", "log10 Kd, replicates": "n.d. n.d. n.d.", "mean log10 Kd (nM)": "n.d.", "control signals": "0/9"}
{"CDR-H1": "GFTLNSYGQS", "CDR-H2": "VIYSDGRRFFYGDSVK", "CDR-H3": "GRAAGTFDS", "log10 Kd, replicates": "4.27 n.d. 3.48", "mean log10 Kd (nM)": "3.88", "control signals": "2/9 (3.93)"}
{"CDR-H1": "GFTLNSYGIS", "CDR-H2": "RIYSDGRRTFYGDSVK", "CDR-H3": "GRAAGVFDS", "log10 Kd, replicates": "n.d. n.d. n.d.", "mean log10 Kd (nM)": "n.d.", "control signals": "0/9"}
{"CDR-H1": "GFTLNWYGIS", "CDR-H2": "VIYSDDRRTFEGDSVK", "CDR-H3": "GRAAGTFDS", "log10 Kd, replicates": "n.d. n.d. n.d.", "mean log10 Kd (nM)": "n.d.", "control signals": "0/9"}
{"CDR-H1": "GFTLNSYGIS", "CDR-H2": "VIYSKGYRPFYGDSVK", "CDR-H3": "GRAAGTFDS", "log10 Kd, replicates": "n.d. n.d. n.d.", "mean log10 Kd (nM)": "n.d.", "control signals": "0/9"}
{"CDR-H1": "GFTLNSYGIS", "CDR-H2": "VIYSDGRITFYGDSVK", "CDR-H3": "GRAIGTFDS", "log10 Kd, replicates": "n.d. n.d. n.d.", "mean log10 Kd (nM)": "n.d.", "control signals": "0/9"}
{"CDR-H1": "EFTSNSYGIS", "CDR-H2": "AIYSDGRRTFYGDSVK", "CDR-H3": "GRAAGTFDS", "log10 Kd, replicates": "n.d. n.d. n.d.", "mean log10 Kd (nM)": "n.d.", "control signals": "0/9"}
{"CDR-H1": "GFTLFLYGIS", "CDR-H2": "VIYSYGRRTFYGDSVK", "CDR-H3": "GRAAGTFDS", "log10 Kd, replicates": "n.d. n.d. n.d.", "mean log10 Kd (nM)": "n.d.", "control signals": "3/9 (3.93)"}
{"CDR-H1": "GFTLNSYGIS", "CDR-H2": "VIYSDGRRGFYGDSCK", "CDR-H3": "GRAAGTFIS", "log10 Kd, replicates": "n.d. n.d. n.d.", "mean log10 Kd (nM)": "n.d.", "control signals": "3/9 (4.64)"}
{"CDR-H1": "GFTLNFYGIR", "CDR-H2": "VIYSDGRRTFYGDSVK", "CDR-H3": "GRAAGTFRS", "log10 Kd, replicates": "n.d. 2.67 n.d.", "mean log10 Kd (nM)": "2.67", "control signals": "1/9 (4.14)"}
{"CDR-H1": "GFTNNSYGIS", "CDR-H2": "VIYSDGRRTFYGDSRK", "CDR-H3": "GRAIGTFDS", "log10 Kd, replicates": "n.d. n.d. n.d.", "mean log10 Kd (nM)": "n.d.", "control signals": "1/9 (3.91)"}
{"CDR-H1": "GATLNSYGIS", "CDR-H2": "VIYSDGRRTFYGDSVK", "CDR-H3": "GLAAGIFDS", "log10 Kd, replicates": "n.d. 4.16 3.89", "mean log10 Kd (nM)": "4.02", "control signals": "0/9"}
{"CDR-H1": "GFTLNSYGIS", "CDR-H2": "VIYSDGRRYFYGDSVK", "CDR-H3": "LKAAGTFDS", "log10 Kd, replicates": "n.d. n.d. n.d.", "mean log10 Kd (nM)": "n.d.", "control signals": "0/9"}
{"CDR-H1": "SFTLNSYGPS", "CDR-H2": "VIYSDGRRTFYGDSVK", "CDR-H3": "GRAAGHFDS", "log10 Kd, replicates": "n.d. 4.49 5.90", "mean log10 Kd (nM)": "5.20", "control signals": "1/9 (3.83)"}
{"CDR-H1": "GWTLNSYGIS", "CDR-H2": "VIYCDGRRTVYGDSVK", "CDR-H3": "GRAAGTFDS", "log10 Kd, replicates": "n.d. n.d. 4.00", "mean log10 Kd (nM)": "4.00", "control signals": "2/9 (4.11)"}
{"CDR-H1": "GFTLNSYGSS", "CDR-H2": "VIYSDGRRGNYGDSVK", "CDR-H3": "GRAAGTFDS", "log10 Kd, replicates": "4.62 n.d. n.d.", "mean log10 Kd (nM)": "4.62", "control signals": "1/9 (3.13)"}
{"CDR-H1": "GLTLNFYGIS", "CDR-H2": "VIYSDGRRTFYGDSVK", "CDR-H3": "HRAAGTFDS", "log10 Kd, replicates": "4.18 3.21 3.40", "mean log10 Kd (nM)": "3.60", "control signals": "0/9"}
{"CDR-H1": "GFTLNSDGIS", "CDR-H2": "VGYSDGRRTFYGDSVD", "CDR-H3": "GRAAGTFDS", "log10 Kd, replicates": "n.d. 2.09 n.d.", "mean log10 Kd (nM)": "2.09", "control signals": "0/9"}

From the list, the first 2 with no signal in any replicate:

{"CDR-H1": "GFTLNSYGIK", "CDR-H2": "VIYSDERRTFYGDSVK", "CDR-H3": "GRAGGTFDS", "log10 Kd, replicates": "n.d. n.d. n.d.", "mean log10 Kd (nM)": "n.d.", "control signals": "0/9"}
{"CDR-H1": "GFTLNSPGIS", "CDR-H2": "VIYSDGRRTFHQDSVK", "CDR-H3": "GRAAGTFDS", "log10 Kd, replicates": "n.d. n.d. n.d.", "mean log10 Kd (nM)": "n.d.", "control signals": "0/9"}

Values reported by Engelhart et al. 2022, doi:10.1038/s41597-022-01779-4 (FLAb copy).